Biological target: estrogen receptor β (Homo sapiens, UniProt Q92731)
Assay: Luciferase reporter assay using cell of the present invention (estrogen receptor β, HeLa cell)
Conditions: 17β estradiol concentration increased 10-fold per district (0.1 pM to 100 nM); 36 hours; FIG. 3

Chains of the proteins cited; added tags and fusions are not shown.
UniProt Q92731, whole entry: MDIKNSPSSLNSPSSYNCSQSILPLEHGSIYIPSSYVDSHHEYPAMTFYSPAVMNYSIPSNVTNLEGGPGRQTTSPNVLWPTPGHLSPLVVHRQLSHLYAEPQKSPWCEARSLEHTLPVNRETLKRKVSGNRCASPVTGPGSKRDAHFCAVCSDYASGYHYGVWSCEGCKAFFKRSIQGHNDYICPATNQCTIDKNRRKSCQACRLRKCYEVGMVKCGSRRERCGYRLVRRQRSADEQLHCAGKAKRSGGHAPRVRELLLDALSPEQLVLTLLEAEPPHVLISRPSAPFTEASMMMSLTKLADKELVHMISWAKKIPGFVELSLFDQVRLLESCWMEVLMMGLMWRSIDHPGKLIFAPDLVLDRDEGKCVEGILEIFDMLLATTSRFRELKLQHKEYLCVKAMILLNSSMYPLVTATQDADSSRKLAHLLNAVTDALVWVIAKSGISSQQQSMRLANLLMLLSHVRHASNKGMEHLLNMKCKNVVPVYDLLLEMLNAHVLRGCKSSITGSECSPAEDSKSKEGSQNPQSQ

C[C@]12CC[C@@H]3c4ccc(O)cc4CC[C@H]3[C@@H]1CC[C@@H]2O [17β estradiol, 17β-estradiol]
luciferase activity, estrogen receptor β cell: Increase in luciferase activity along with the increase in the concentration

Reference: patent US7537904B1 (dated 2009)
